Measured values taken from article PMC8016166, “Identification of a Potent and Selective 5-HT1A Receptor Agonist with In Vitro and In Vivo Antinociceptive Activity” (ACS Chemical Neuroscience, 2020).

The chains behind the UniProt entries cited, without tags or fusion partners.
UniProt P19327, whole entry: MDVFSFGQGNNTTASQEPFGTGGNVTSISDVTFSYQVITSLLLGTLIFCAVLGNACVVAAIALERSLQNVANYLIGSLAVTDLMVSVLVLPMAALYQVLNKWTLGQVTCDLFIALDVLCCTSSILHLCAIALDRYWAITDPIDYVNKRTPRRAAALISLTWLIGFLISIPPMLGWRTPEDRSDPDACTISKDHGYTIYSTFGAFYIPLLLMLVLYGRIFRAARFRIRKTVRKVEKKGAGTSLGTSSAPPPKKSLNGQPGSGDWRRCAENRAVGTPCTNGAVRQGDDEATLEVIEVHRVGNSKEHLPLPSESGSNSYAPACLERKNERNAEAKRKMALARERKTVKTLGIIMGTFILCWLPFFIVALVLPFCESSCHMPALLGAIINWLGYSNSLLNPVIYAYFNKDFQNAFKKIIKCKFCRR

Biological target: T1, 5-HT1AR (Rattus norvegicus, UniProt P19327)
T1 construct: from tissue; hippocampus per the main-text methods
Assay: [35S]GTPγS functional 5-HT1A assay in rat hippocampal membranes
Format: biochemical
Description: Male Sprague–Dawley rats were decapitated and their brains removed and placed on ice. The hippocampi (for the functional 5-HT1A receptor assay) or frontal cortexes (for the competitive 5-HT2A and 5-HT2C receptor assays) were dissected and homogenized with a glass homogenizer in 30 vol. ice-cold TED buffer (50 mMTris-HCl, 1 mM EDTA, 1 mM dithiotheritol, pH 7.4). Next, the homogenate was centrifuged at 21 000g for 30 min at 4 °C. The pellet was suspended in 30 vol TED buffer (pH 7.4) and incubated in a water bath for 10 min at 37 °C to remove endogenous ligands. The suspension was centrifuged again at 21 000g for 30 min at 4 °C. […]
The [^35S]GTPγS assay was performed according to the method described previously.[49] […] Nonspecific binding was determined with 100 μM of unlabeled GTPγS. […] The radioactivity was counted in a Trilux MicroBeta^2 counter (PerkinElmer, USA). The data were analyzed with GraphPad Prism 5.0 software (GraphPad Software, San Diego California USA, www.graphpad.com). […]
The curves were fitted with a one-site nonlinear regression model. Efficacy (Emax) and potency (pEC50) were calculated from […] from three separate experiments and expressed as the means ± SEM. […] The differences in compound potency and efficacy were evaluated with one-way ANOVA followed by the Bonferroni’s post-hoc test. […]

Q: For `NCCc1c[nH]c2ccc(O)cc12` [serotonin, reference compound], which EC50 is on record?
A: Its EC50 is 158 nM.
